The assay concerns DLD-1 colorectal cancer cell line xenograft. In words: Xenograft model of nude mice bearing DLD-1 colorectal cancer cell line. The format is in vivo, athymic nude mice. As to conditions: Example 6; Erbitux 10 mg/Kg body weight i.p. every second day, after two weeks of treatment; FIG. 6. The protocol:
Male athymic nude mice, 6-8 weeks old, (Harlan Laboratories) were housed in sterile cages and handled with aseptic precautions. The mice were fed ad libitum. The therapeutic anti-cancer activity of terpinen-4-ol alone or in combination with additional anti-cancer agents was examined as follows: exponentially growing DLD1 cancer cells were harvested and resuspended at a final concentration of 5×10^6 cells per 0.2 ml PBS per injection. The cells were injected subcutaneously at two sites on the backs of the mice. When tumors were palpable, mice were randomly divided into the treatment groups as described hereinbelow. […]
Mice were treated every second day. The mice were weighed and tumor volume was measured every three days (with a caliper) starting from the onset of treatment with terpinen-4-ol/control. Tumor volume was calculated as 4/3π·a·b^2. At the end of the experiment, the mice were sacrificed by cervical dislocation after anesthesia and the tumors were excised and measured for volume and weight. […]
The treatment groups were as follows (4 mice per group): Control—1% DMSO in PBS; Erb—10 mg/Kg body weight of Erbitux®; 1A—50 μl 0.1% terpinen-4-ol dissolved in 1% DMSO in PBS; and Erb+1A—combination of Erbitux at 10 mg/Kg body weight and 0.1% terpinen-4-ol dissolved in 1% DMSO in PBS. […] Mice were weighed and tumor volume was measured with a caliper before each additional treatment. […]

For “Erbitux®: humanized monoclonal antibody that binds the epidermal growth factor receptor (EGFR) [reference compound]”, the “reduction of tumor size compared to control” value is on record as “about 23.5%”.
